According to patent US11732143B2, “Identification and characterization of novel corrosion inhibitor molecules” (ECOLAB USA INC., priority 2015, dated 2023):

Tested on: live bacteria
Test: Biocide efficiency, fluorescence detection of ATP, percentage kill / viable bacteria
Format: cell-based
Procedure: Biocidal efficiency of the biocide and biocide in conjunction with corrosion inhibitors were analyzed using fluorescence to indirectly detect the amount of ATP in a given sample. ATP provides a direct correlation to live bacteria (1fg of ATP=1 cell). Through a standard curve, it is the possible to translate the amount of ATP in a given sample to the number of cells/mL in a given sample. Percentage kill was calculated by normalizing the detected bacterial numbers in a biocide or a biocide and corrosion inhibitor treated sample to untreated sample.

With Dodecenyl succinic anhydride the “biocidal efficiency in conjunction with biocide 4” value (120 ppm corrosion inhibitor + 100 ppm biocide 4 (glutaraldehyde)) was “modest increase in the biocidal properties of glutaraldehyde” and the “biocidal efficiency of the corrosion inhibitor by itself (viable microorganisms)” value (120 ppm corrosion inhibitor alone) was “not efficient in reducing the number of viable microorganisms by itself”.
